# Assay results: patent US20170202847A1, “METHODS FOR THE TREATMENT OF TUMORS” (The University of North Carolina at Chapel Hill, priority 2014, published 2017)
# Sequences of proteins named here, by UniProt entry; tags and fusion partners are left off. Residues count along the entry.
# UniProt Q60805, 19-994: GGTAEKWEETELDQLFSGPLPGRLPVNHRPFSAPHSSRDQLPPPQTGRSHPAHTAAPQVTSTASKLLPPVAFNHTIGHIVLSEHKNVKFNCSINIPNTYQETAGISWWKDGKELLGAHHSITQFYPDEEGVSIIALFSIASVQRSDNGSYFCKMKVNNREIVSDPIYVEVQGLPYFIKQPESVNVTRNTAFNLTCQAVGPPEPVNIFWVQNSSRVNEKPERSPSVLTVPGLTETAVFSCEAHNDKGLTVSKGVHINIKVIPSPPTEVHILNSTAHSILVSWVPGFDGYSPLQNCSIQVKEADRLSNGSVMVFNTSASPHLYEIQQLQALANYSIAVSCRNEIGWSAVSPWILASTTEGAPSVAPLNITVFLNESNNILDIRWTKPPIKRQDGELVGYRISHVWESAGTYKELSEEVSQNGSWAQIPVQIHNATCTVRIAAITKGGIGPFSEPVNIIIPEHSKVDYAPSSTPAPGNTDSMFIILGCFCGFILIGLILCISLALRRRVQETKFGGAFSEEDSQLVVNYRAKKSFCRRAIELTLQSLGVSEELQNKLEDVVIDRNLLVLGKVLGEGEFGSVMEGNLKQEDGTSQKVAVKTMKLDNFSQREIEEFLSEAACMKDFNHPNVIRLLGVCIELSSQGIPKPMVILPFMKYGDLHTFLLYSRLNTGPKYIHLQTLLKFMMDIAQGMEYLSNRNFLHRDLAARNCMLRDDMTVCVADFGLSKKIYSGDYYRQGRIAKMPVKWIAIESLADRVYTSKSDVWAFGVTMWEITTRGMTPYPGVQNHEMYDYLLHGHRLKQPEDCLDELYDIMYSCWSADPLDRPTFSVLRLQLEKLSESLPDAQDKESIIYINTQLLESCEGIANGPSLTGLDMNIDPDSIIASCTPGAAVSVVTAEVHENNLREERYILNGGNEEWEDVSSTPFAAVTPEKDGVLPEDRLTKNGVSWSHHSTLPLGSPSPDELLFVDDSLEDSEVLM
# Target: MER in mouse macrophages (Mus musculus, UniProt Q60805)
# Settings: in vitro
compound,measurement,value
CCCCNc1ncc2c(-c3ccc(CN4CCN(C)CC4)cc3)cn([C@H]3CC[C@H](O)CC3)c2n1 [MRX6313],phosphorylation of MER in mouse macrophages,inhibited phosphorylation of MER
same,survival of macrophages or MER-negative PyVmT tumor cells,did not affect survival
